Laboratory results: PMC2703631, “Identification of non-muscle myosin heavy chain as a substrate for Cdk5 and tool for drug screening” (Journal of Biomedical Science, 2009)

System: Cdk5/p25 transfected HEK293 cells
Assay: NMHC-B (pSerCdk substrate) phosphorylation by Western blot in Cdk5/p25 transfected HEK293 cells
Type: cell-based, human
Conditions: Cdk5/p25 transfected HEK293 cells treated with 1 μM

Structure (SMILES): CC[C@H](CO)Nc1nc(NCc2ccccc2)c2ncn(C(C)C)c2n1 [Roscovitine]
- 200 kDa pSerCdk substrate band intensity: decreased in intensity
